# ChEMBL document CHEMBL2346572, “Discovery of AZD3514, a small-molecule androgen receptor downregulator for treatment of advanced prostate cancer” (Bioorg Med Chem Lett, 2013)
# By UniProt entry, the sequences of proteins in these tests, tags left out. Where a name states a change or a piece, a line headed by the entry shows the natural chain unless it says otherwise.
# UniProt P10275: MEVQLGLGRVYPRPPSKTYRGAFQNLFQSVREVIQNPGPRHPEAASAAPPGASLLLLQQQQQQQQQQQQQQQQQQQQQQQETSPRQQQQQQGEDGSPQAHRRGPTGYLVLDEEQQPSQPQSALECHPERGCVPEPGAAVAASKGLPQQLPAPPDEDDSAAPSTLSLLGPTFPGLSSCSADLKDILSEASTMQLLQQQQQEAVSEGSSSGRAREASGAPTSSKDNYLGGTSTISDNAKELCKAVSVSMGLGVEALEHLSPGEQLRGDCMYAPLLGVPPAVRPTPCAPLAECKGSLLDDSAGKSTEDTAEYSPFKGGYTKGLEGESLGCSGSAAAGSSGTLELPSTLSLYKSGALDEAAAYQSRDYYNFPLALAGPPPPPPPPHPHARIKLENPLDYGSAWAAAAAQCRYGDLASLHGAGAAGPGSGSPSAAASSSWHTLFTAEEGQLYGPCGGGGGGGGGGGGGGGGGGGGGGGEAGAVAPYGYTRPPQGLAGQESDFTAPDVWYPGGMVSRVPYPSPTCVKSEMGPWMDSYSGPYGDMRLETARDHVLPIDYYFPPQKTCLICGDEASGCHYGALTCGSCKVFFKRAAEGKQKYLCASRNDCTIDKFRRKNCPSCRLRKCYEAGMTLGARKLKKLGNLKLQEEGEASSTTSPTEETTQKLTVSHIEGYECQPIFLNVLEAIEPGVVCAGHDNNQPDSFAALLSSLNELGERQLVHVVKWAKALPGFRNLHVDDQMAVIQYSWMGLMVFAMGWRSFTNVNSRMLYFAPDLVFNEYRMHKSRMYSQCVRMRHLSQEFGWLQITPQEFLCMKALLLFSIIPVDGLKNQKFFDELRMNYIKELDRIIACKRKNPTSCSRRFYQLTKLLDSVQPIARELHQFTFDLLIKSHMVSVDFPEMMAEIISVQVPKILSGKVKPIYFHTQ
# Target: Androgen receptor (Homo sapiens, UniProt P10275)
# Format: cell-based, LNCaP
smiles,measurement,value
Fc1ccc(CN2CCN(c3ccc4nnc(C(F)(F)F)n4n3)CC2)cc1,IC50,1.58 µM
